According to PubChem BioAssay AID1032 (The Scripps Research Institute Molecular Screening Center, 2008):
Only a part is listed here, and it is no random draw. Calls of active or inactive are those of the source. Rule as the data show it: active = activation above about 22%; inactive = the rest.

The chains behind the UniProt entries cited, without tags or fusion partners. Residues count along the entry.
UniProt P37231, 232-505 limits assumed: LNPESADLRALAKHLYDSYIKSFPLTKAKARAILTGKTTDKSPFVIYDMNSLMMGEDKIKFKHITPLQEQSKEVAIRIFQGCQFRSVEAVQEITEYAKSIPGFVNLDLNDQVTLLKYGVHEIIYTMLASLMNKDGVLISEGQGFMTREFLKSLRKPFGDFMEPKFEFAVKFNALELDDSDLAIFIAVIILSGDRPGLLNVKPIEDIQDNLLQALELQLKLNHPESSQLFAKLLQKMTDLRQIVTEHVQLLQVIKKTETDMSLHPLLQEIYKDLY
UniProt Q15596, whole entry partner: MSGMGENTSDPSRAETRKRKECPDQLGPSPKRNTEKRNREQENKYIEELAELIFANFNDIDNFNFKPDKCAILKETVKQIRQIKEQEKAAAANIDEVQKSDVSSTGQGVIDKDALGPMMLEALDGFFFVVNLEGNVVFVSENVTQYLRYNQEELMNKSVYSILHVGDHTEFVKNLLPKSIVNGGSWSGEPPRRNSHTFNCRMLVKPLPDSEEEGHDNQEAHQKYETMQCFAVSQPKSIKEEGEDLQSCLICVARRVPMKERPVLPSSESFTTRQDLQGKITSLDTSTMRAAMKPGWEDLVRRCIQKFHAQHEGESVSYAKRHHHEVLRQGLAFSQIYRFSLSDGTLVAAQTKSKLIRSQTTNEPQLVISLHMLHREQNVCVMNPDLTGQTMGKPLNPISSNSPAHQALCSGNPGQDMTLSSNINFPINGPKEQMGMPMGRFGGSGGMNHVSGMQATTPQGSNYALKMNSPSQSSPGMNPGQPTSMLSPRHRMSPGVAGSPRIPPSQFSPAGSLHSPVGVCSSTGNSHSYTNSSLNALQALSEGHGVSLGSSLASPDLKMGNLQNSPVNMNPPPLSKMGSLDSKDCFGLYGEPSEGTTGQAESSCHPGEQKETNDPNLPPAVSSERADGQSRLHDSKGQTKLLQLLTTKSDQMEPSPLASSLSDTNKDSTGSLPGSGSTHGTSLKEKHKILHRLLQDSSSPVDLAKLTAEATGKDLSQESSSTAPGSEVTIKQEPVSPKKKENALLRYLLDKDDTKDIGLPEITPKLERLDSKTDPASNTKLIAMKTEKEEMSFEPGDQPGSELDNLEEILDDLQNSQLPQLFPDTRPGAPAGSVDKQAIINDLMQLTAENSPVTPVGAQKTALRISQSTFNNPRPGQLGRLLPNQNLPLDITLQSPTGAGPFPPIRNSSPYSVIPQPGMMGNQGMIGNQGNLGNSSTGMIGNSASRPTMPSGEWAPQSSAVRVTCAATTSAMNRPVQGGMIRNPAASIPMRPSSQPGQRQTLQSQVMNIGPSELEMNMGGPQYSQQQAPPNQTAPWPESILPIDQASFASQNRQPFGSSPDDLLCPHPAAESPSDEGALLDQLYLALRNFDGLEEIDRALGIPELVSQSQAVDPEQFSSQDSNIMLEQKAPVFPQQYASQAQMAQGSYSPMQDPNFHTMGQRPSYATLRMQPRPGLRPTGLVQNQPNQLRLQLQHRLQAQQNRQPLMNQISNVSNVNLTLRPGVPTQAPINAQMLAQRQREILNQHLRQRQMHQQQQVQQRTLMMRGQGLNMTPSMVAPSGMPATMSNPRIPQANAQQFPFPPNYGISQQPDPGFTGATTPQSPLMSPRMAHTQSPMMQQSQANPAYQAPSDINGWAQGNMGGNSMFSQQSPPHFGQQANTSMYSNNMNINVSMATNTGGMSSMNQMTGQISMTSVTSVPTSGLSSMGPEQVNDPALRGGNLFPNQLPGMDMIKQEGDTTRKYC

biological target: Peroxisome proliferator-activated receptor gamma (Homo sapiens) (UniProt P37231); test: compounds enhancing SRC-2 coactivator binding to PPARgamma – biochemical, HTS, primary screen (AID 1032); conditions: PPARgamma LBD-SRC-2 recruitment, at 8 µM, active compounds read high;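 also: 0% = vehicle and 100% = reference agonist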

Structure (SMILES) | activation
COc1ccccc1OP(C)(=O)Nc1cc(Cl)ccc1C (stereo unspecified) | inactive: 3.76%
